The values that follow come from paper PMC13379236 (Cell reports, 2026).

For this assay, the target named is T1, CRL2^ZYG11B pentamer complex (ZBCC) (human, UniProt Q9C0D3 1-744; Q15370 1-118; Q15369 17-112; Q13617 1-745; P62877 1-108).
T1 construct: also called E3 holoenzyme; CRL2-ZYG11B complex
Kind of assay: pull-down; MBP pull-down: about 100 ug MBP fusion protein immobilized on 50 uL amylose resin, prey at 1:1 molar ratio, 1 h at 4 C, eluted with 20 mM maltose, SDS-PAGE and Coomassie. The following applies: both partners purified.

Take GSERRVLRQL (also called MBP-NLRP1 degron) [Degron-10 MBP fusion protein (GSERRVLRQL at the N terminus of MBP)]: the binding result is “binds”.

Turning to GSERRVLRQLPDTSGRRWRE (also called MBP-NLRP1 degron) [Degron-20 MBP fusion protein (GSERRVLRQLPDTSGRRWRE at the N terminus of MBP)], the binding result is reported as “binds”.
